ChEMBL document CHEMBL3885881, “DrugMatrix”

Assays:
[1] = species: Rattus norvegicus; experiment: DrugMatrix - Regimen: Daily Repeat; assay type: toxicity, organism-based, Sprague-Dawley; design: regimen Daily Repeat, gender Male, age 6-8 weeks; conditions: in vivo
[2] = species: Rattus norvegicus; assay type: toxicity, organism-based, Sprague-Dawley; conditions: in vivo, sc, 24 h, route mini-PUMP - SUBCUTANEOUS, time 1 day, vehicle 100 % SALINE
[3] = po, 0 mg/kg, 72 h, tissue Blood, route oral GAVAGE, dose level Control, time 3 day, vehicle .5 % CMC
[4] = po, 0 mg/kg, 120 h, tissue Blood, route oral GAVAGE, dose level Control, time 5 day, vehicle .5 % CMC
[5] = po, 3 mg/kg, 72 h, tissue Blood, route oral GAVAGE, dose level Low, time 3 day, vehicle .5 % CMC
[6] = po, 3 mg/kg, 120 h, tissue Blood, route oral GAVAGE, dose level Low, time 5 day, vehicle .5 % CMC
[7] = iv, 0 mg/kg, 72 h, tissue Plasma, dose level Control, time 3 day, vehicle 100 % SALINE
[8] = iv, 0 mg/kg, 120 h, tissue Plasma, dose level Control, time 5 day, vehicle 100 % SALINE
[9] = po, 250 mg/kg, 72 h, tissue Blood, route oral GAVAGE, dose level M1, time 3 day, vehicle .5 % CMC
[10] = po, 500 mg/kg, 72 h, tissue Blood, route oral GAVAGE, dose level High, time 3 day, vehicle .5 % CMC
[11] = […], tissue Blood, dose 0.77 mg/Kg, dose level High
[12] = […], tissue Plasma, dose 0.77 mg/Kg, dose level High
[13] = sc, 0 mg/kg, 72 h, tissue Blood, route mini-PUMP - SUBCUTANEOUS, dose level Control, time 3 day, vehicle 100 % SALINE
[14] = sc, 0 mg/kg, 72 h, tissue Plasma, route mini-PUMP - SUBCUTANEOUS, dose level Control, time 3 day, vehicle 100 % SALINE
[15] = sc, 0 mg/kg, 120 h, tissue Blood, route mini-PUMP - SUBCUTANEOUS, dose level Control, time 5 day, vehicle 100 % SALINE
[16] = sc, 0 mg/kg, 120 h, tissue Plasma, route mini-PUMP - SUBCUTANEOUS, dose level Control, time 5 day, vehicle 100 % SALINE
[17] = sc, 0 mg/kg, […], tissue Blood, route mini-PUMP - SUBCUTANEOUS, dose level Control, time 14 day, vehicle 100 % SALINE
[18] = sc, 0 mg/kg, […], tissue Plasma, route mini-PUMP - SUBCUTANEOUS, dose level Control, time 14 day, vehicle 100 % SALINE
[19] = sc, […], 72 h, tissue Blood, route mini-PUMP - SUBCUTANEOUS, dose 0.77 mg/Kg, dose level High, time 3 day, vehicle 100 % SALINE
[20] = sc, […], 72 h, tissue Plasma, route mini-PUMP - SUBCUTANEOUS, dose 0.77 mg/Kg, dose level High, time 3 day, vehicle 100 % SALINE
[21] = sc, […], 120 h, tissue Blood, route mini-PUMP - SUBCUTANEOUS, dose 0.77 mg/Kg, dose level High, time 5 day, vehicle 100 % SALINE
[22] = sc, […], 120 h, tissue Plasma, route mini-PUMP - SUBCUTANEOUS, dose 0.77 mg/Kg, dose level High, time 5 day, vehicle 100 % SALINE
[23] = ip, 0 mg/kg, […], tissue Plasma, route intraperitoneal, dose level Control, time 28 day, vehicle 100 % SALINE
[24] = ip, 0 mg/kg, […], tissue Plasma, route intraperitoneal, dose level Control, time 14 day, vehicle 100 % SALINE
[25] = ip, 0.5 mg/kg, […], tissue Plasma, route intraperitoneal, dose level High, time 28 day, vehicle 100 % SALINE
[26] = po, 90 mg/kg, 72 h, tissue Plasma, route oral GAVAGE, dose level High, time 3 day, vehicle 100 % WATER

In the case of `NCCCC(O)(P(=O)(O)O)P(=O)(O)O` [ALENDRONIC ACID], the HEMOGLOBIN [1, 3] is reported as 14.58 G/DL, the HEMOGLOBIN [1, 4] is reported as 15.83 G/DL and the HEMOGLOBIN [1, 5] is reported as 13.73 G/DL. It also gave an HEMOGLOBIN [1, 6] of 16.1 G/DL.
For `CN1[C@@H]2CC[C@H]1C[C@@H](OC(=O)C(CO)c1ccccc1)C2` (some centres not stated) [ATROPINE], the MONOCYTE ([1]; po, 0 mg/kg, 72 h, tissue Blood, route oral GAVAGE, dose level Control, time 3 day, vehicle 100 % WATER) was 0.67%, the MONOCYTE ([1]; po, 0 mg/kg, 120 h, tissue Blood, route oral GAVAGE, dose level Control, time 5 day, vehicle 100 % WATER) was 1.83% and the MONOCYTE ([1]; po, 94 mg/kg, 72 h, tissue Blood, route oral GAVAGE, dose level High, time 3 day, vehicle 100 % WATER) was 0.33%. It also gave an MONOCYTE ([1]; po, 94 mg/kg, 120 h, tissue Blood, route oral GAVAGE, dose level High, time 5 day, vehicle 100 % WATER) of 1% and an MONOCYTE ([1]; po, […], 120 h, tissue Blood, route oral GAVAGE, dose 2.3 mg/Kg, dose level Low, time 5 day, vehicle 100 % WATER) of 1%.
Work on `COc1cccc2c1C(=O)c1c(O)c3c(c(O)c1C2=O)C[C@@](O)(C(=O)CO)C[C@@H]3O[C@H]1C[C@H](N)[C@H](O)[C@H](C)O1` [DOXORUBICIN] yielded a POTASSIUM [1, 7] of 5.7 MEQ/L, a POTASSIUM [1, 8] of 5.45 MEQ/L and a POTASSIUM ([1]; iv, 3 mg/kg, 72 h, tissue Plasma, dose level High, time 3 day, vehicle 100 % SALINE) of 5.61 MEQ/L. For the same compound, the POTASSIUM ([1]; iv, 3 mg/kg, 120 h, tissue Plasma, dose level High, time 5 day, vehicle 100 % SALINE) was 5.07 MEQ/L, the POTASSIUM ([1]; iv, […], 72 h, tissue Plasma, dose 0.65 mg/Kg, dose level Low, time 3 day, vehicle 100 % SALINE) was 5.89 MEQ/L and the POTASSIUM ([1]; iv, […], 120 h, tissue Plasma, dose 0.65 mg/Kg, dose level Low, time 5 day, vehicle 100 % SALINE) was 5.17 MEQ/L.
With `CCN(CC)CCOc1ccc(/C(=C(/Cl)c2ccccc2)c2ccccc2)cc1` [ENCLOMIPHENE] the “ABSOLUTE MONOCYTE” value [1, 3] was 0 CELLS/uL, the HEMOGLOBIN [1, 3] was 13.45 G/DL and the “LEUKOCYTE COUNT” value [1, 3] was 16.17 x10E3/uL. The LIPASE ([1]; po, 0 mg/kg, 72 h, tissue Plasma, route oral GAVAGE, dose level Control, time 3 day, vehicle .5 % CMC) was 9.5 u/L, the “ABSOLUTE MONOCYTE” value [1, 4] was 29.17 CELLS/uL and the HEMOGLOBIN [1, 4] was 13.4 G/DL. The LIPASE ([1]; po, 0 mg/kg, 120 h, tissue Plasma, route oral GAVAGE, dose level Control, time 5 day, vehicle .5 % CMC) was 8.67 u/L, the HEMOGLOBIN [1, 5] was 14.2 G/DL and the LIPASE ([1]; po, 3 mg/kg, 72 h, tissue Plasma, route oral GAVAGE, dose level Low, time 3 day, vehicle .5 % CMC) was 8.67 u/L. The “ABSOLUTE MONOCYTE” value [1, 6] was 173.67 CELLS/uL, the HEMOGLOBIN [1, 6] was 14.97 G/DL and the LIPASE ([1]; po, 3 mg/kg, 120 h, tissue Plasma, route oral GAVAGE, dose level Low, time 5 day, vehicle .5 % CMC) was 7.67 u/L. The “ABSOLUTE MONOCYTE” value [1, 9] was 0 CELLS/uL, the HEMOGLOBIN [1, 9] was 15.4 G/DL and the LIPASE ([1]; po, 250 mg/kg, 72 h, tissue Plasma, route oral GAVAGE, dose level M1, time 3 day, vehicle .5 % CMC) was 9 u/L. For the same compound, the “ABSOLUTE MONOCYTE” value ([1]; po, 250 mg/kg, 120 h, tissue Blood, route oral GAVAGE, dose level M1, time 5 day, vehicle .5 % CMC) was 0 CELLS/uL, the LIPASE ([1]; po, 250 mg/kg, 120 h, tissue Plasma, route oral GAVAGE, dose level M1, time 5 day, vehicle .5 % CMC) was 7 u/L and the “ABSOLUTE MONOCYTE” value [1, 10] was 282 CELLS/uL. For the same compound, the HEMOGLOBIN [1, 10] was 15.87 G/DL.
`COc1cccc2c1C(=O)c1c(O)c3c(c(O)c1C2=O)C[C@@](O)(C(=O)CO)C[C@@H]3O[C@H]1C[C@H](N)[C@@H](O)[C@H](C)O1` [EPIRUBICIN] was tested, and the POTASSIUM [1, 7] was 6.68 MEQ/L, the POTASSIUM [1, 8] was 6.66 MEQ/L and the POTASSIUM ([1]; iv, […], 72 h, tissue Plasma, dose 0.27 mg/Kg, dose level Low, time 3 day, vehicle 100 % SALINE) was 6.47 MEQ/L. The POTASSIUM ([1]; iv, […], 72 h, tissue Plasma, dose 2.7 mg/Kg, dose level High, time 3 day, vehicle 100 % SALINE) was 6.52 MEQ/L and the POTASSIUM ([1]; iv, […], 120 h, tissue Plasma, dose 2.7 mg/Kg, dose level High, time 5 day, vehicle 100 % SALINE) was 6.39 MEQ/L.
`CN1CCN2c3ccccc3Cc3ccccc3C2C1` (configuration not stated) [MIANSERIN] was tested, and the “ERYTHROCYTE COUNT” value ([1]; po, 10 mg/kg, 120 h, tissue Blood, route oral GAVAGE, dose level Low, time 5 day, […]) was 5.73 x10E6/uL.
`CNCC(O)c1ccc(O)c(O)c1` (configuration not stated) [RACEPINEPHRINE] was tested, and the HEMATOCRIT ([2]; 0 mg/kg, tissue Blood, dose level Control) was 34.52%, the GLUCOSE ([2]; 0 mg/kg, tissue Plasma, dose level Control) was 179.83 mg/dL and the EOSINOPHIL [2, 11] was 0.33%. The MONOCYTE [2, 11] was 2%, the “ALANINE AMINOTRANSFERASE” value [2, 12] was 51 u/L and the “ASPARTATE AMINOTRANSFERASE” value [2, 12] was 89 u/L. The “CARBON DIOXIDE” value [2, 12] was 28.33 mmol/L, the HEMATOCRIT [1, 13] was 36.95% and the MONOCYTE [1, 13] was 2%. For the same compound, the NEUTROPHIL [1, 13] was 10.33%, the GLUCOSE [1, 14] was 136.83 mg/dL and the “URIC ACID” value [1, 14] was 1.4 mg/dL. For the same compound, the HEMATOCRIT [1, 15] was 36.22%, the NEUTROPHIL [1, 15] was 17.67% and the CREATININE [1, 16] was 0.16 mg/dL. For the same compound, the GLUCOSE [1, 16] was 152.67 mg/dL, the “TOTAL BILIRUBIN” value [1, 16] was 0.17 mg/dL and the “URIC ACID” value [1, 16] was 1.27 mg/dL. It also gave an HEMATOCRIT [1, 17] of 35.4%, an MONOCYTE [1, 17] of 2.17% and a GLUCOSE [1, 18] of 182.33 mg/dL. The “URIC ACID” value [1, 18] was 1.38 mg/dL, the EOSINOPHIL [1, 19] was 0.33% and the LYMPHOCYTE [1, 19] was 85%. For the same compound, the MONOCYTE [1, 19] was 2%, the NEUTROPHIL [1, 19] was 12.67% and the CREATININE [1, 20] was 0.16 mg/dL. For the same compound, the GLUCOSE [1, 20] was 165.67 mg/dL, the “URIC ACID” value [1, 20] was 1.97 mg/dL and the HEMATOCRIT [1, 21] was 35.43%. The MONOCYTE [1, 21] was 3%, the NEUTROPHIL [1, 21] was 22% and the “BLOOD UREA NITROGEN” value [1, 22] was 13.67 mg/dL. The “CARBON DIOXIDE” value [1, 22] was 28.33 mmol/L, the CHLORIDE [1, 22] was 102.67 MEQ/L and the GLUCOSE [1, 22] was 146.33 mg/dL.
CARBOPLATIN gave a CHLORIDE [1, 23] of 105.4 MEQ/L and an HEMOGLOBIN ([1]; iv, 6 mg/kg, 120 h, tissue Blood, dose level Low, time 5 day, vehicle 100 % SALINE) of 13.4 G/DL.
CISPLATIN was tested, and the ALBUMIN [1, 24] was 4.05 G/DL, the “URIC ACID” value [1, 24] was 1.57 mg/dL and the CHLORIDE [1, 23] was 105.4 MEQ/L. It also gave an ALBUMIN [1, 25] of 3.73 G/DL and a CHLORIDE [1, 25] of 105.11 MEQ/L.
In the case of STANNOUS FLUORIDE, the NEUTROPHIL ([1]; po, 9 mg/kg, 72 h, tissue Blood, route oral GAVAGE, dose level Low, time 3 day, vehicle 100 % WATER) is reported as 9.33%, the NEUTROPHIL ([1]; po, 9 mg/kg, 120 h, tissue Blood, route oral GAVAGE, dose level Low, time 5 day, vehicle 100 % WATER) is reported as 9.33% and the CHLORIDE [1, 26] is reported as 105 MEQ/L. For the same compound, the GLUCOSE [1, 26] was 161.67 mg/dL.
